Data taken from patent US20070275887A1 (published 2007).

Chains of the proteins cited; added tags and fusions are not shown. Residues count along the entry.
UniProt Q86TM6, 236-617 E545G: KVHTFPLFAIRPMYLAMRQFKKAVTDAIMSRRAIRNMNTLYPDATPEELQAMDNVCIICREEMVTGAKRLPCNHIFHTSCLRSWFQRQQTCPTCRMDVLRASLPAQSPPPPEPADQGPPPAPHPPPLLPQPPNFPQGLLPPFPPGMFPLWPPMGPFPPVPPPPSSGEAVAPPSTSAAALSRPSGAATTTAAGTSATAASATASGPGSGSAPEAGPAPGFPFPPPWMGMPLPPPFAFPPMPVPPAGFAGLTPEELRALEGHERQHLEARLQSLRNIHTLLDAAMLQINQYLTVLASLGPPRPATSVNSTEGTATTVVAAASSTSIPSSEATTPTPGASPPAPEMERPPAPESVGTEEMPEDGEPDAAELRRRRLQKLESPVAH

Target: T1, Flag-Syno dTM fusion protein (human, UniProt Q86TM6, in part, 35S-labelled by in vitro translation)
T1 construct: Made by in vitro translation (TNT system); also called [35S]pcDNA3-FlagSyno dTM; pcDNA3-Flag-Syno dTM; not shown: Flag tag
Test: GST pull-down with 35S-labelled in vitro translated protein, SDS-PAGE and image analyzer
Description: pcDNA3-Flag-Syno dTM was prepared with synoviolin from 706 bp to 1854 bp and a TNT-coupled Translation System (Promega) inserted, and subjected to in vitro translation to prepare (i) a Flag-Syno dTM fusion protein, (ii) a Herp GST fusion protein, and (iii) a GST fusion protein with fragmented Herp (FIG. 2).
These proteins and (iv) GST protein as a control were added to a binding buffer comprising 20 mM Hepes (pH 7.9), 100 mM NaCl, 1 mM EDTA, 0.05% Tween, 5% Glycerol, 1 mM DTT, 0.2 mM NaVO₄, 5 mM NaF and 1 mM PMSF, and reacted for 16 hours at 4° C. The reaction product was subjected to SDS-PAGE, and radioactivity was detected with an image analyzer (BAS2000, Fujix).

binding result: no binding
B1: GST protein (control) (other, UniProt P08515 1-218, looked up)
chain: MSPILGYWKIKGLVQPTRLLLEYLEEKYEEHLYERDEGDKWRNKKFELGLEFPNLPYYIDGDVKLTQSMAIIRYIADKHNMLGGCPKERAEISMLEGAVLDIRYGVSRIAYSKDFETLKVDFLSKLPEMLKMFEDRLCHKTYLNGDHVTHPDFMLYDALDVVLYMDPMCLDAFPKLVCFKKRIEAIPQIDKYLKSSKYIAWPLQGWQATFGGGDHPPK
notes: also called control GST
